By UniProt entry, the sequences of proteins in these tests, tags left out.
UniProt P35372, whole entry: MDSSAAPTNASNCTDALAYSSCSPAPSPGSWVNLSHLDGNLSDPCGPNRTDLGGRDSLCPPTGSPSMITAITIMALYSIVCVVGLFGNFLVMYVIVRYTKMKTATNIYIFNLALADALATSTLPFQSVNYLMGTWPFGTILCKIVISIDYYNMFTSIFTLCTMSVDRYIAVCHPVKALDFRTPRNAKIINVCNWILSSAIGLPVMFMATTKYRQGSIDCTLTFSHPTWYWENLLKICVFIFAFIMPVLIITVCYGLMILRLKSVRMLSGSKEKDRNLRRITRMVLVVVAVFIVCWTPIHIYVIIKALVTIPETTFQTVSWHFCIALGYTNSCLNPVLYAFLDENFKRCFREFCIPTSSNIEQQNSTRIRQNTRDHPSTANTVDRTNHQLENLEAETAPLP

In patent publication US8026252B2 (priority 2005, dated 2011):

Target: T1, human μ opioid receptor (Homo sapiens, UniProt P35372)
T1 construct: expressed in transfected cells
Test: biochemical
Type: binding
Details: [3H]DAMGO (μ)

Oc1ccc2c3c1O[C@H]1c4[nH]c5ccccc5c4C[C@@]4(O)[C@@H](C2)N(CC2CC2)CC[C@]314 [Example 72, naltrindole, reference compound]
Ki: 13 ± 1.1 nM
